The species named for the test is Homo sapiens. Description: Antiinflammatory activity in human polymorphonuclear leukocytes assessed as inhibition of n-formylmethionylleucylphenylalanine-stimulated transendothelial migration after 15 mins. In kind it is functional, cell-based.

SMILES strings stand for the structures.

Consider `CC/C=C\C[C@@H](O)/C=C/C=C\C=C\C=C\[C@@H](O)[C@@H](O)C/C=C\CCC(=O)O`, for which the Activity result is “Dose-dependent effect”.
`CC/C=C\C[C@H](O)/C=C/C=C\C=C\C=C\[C@@H](O)[C@@H](O)C/C=C\CCC(=O)O`: the Activity result is “Dose-dependent effect”.

The values above are taken from ChEMBL document CHEMBL1156438, “Resolvin D1 and its aspirin-triggered 17R epimer. Stereochemical assignments, anti-inflammatory properties, and enzymatic inactivation” (J Biol Chem, 2007).
